Test system: Spinacia oleracea
Assay: Inhibition of photophosphorylation in Spinacia oleracea (spinach) leaves chloroplasts by titrimetry
Format: functional
How it was run: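 Intact spinach chloroplasts (20 μg Chl/mL) were osmotically broken in 3 mL of weakly buffered medium: 100 mM sorbitol, 10 mM KCl, 5 mM MgCl2, 0.5 mM KCN, 1 mM tricine-KOH pH 8.0, 50 μM MV and 1 mM ADP. ATP synthesis was taken from the medium alkalization rate in the linear part of illumination, calibrated by HCl back-titration, as μmol ATP (mg Chl)-1 h-1. I50 was obtained from concentration-activity plots; three replicates.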

## C[C@H]1[C@@H](O)CC[C@@H]2[C@]1(C)CC[C@H]1[C@@]2(C)CC[C@@]2(C)[C@@H]3CC(C)(C)CC[C@]3(C)CC[C@]12C [EPIFRIEDELINOL]
  inhibition: Dose-dependent effect

## C[C@H]1C(=O)CC[C@@H]2[C@]1(C)CC[C@H]1[C@@]2(C)CC[C@@]2(C)[C@@H]3CC(C)(C)CC[C@]3(CO)CC[C@]12C [CANOPHYLLOL]
  inhibition: Dose-dependent effect
